This is an account of results in patent EP1914237B1 (priority 1999, dated 2001).

Assay [1] concerns HIV-1.
The test system of assay [2] is HIV-1. Put plainly: microbe, parasite or virus in culture. The note with it: Human immunodeficiency virus 1, 72 h, read-out: EC50, µM, in HIV-1 plaque reduction assay. (In general: Plaques are areas of infected cells; plaque reduction assays count them against a control.)

As usually defined, the EC50 is the concentration giving half of the maximal effect.

As to `CCCCCCCCCCCCCCCCOCCCOP(=O)(O)COCCn1cnc2c(N)ncnc21` [HDP-Adefovir], the “logs more active than adefovir” value in the assay on HIV-1 [1] is listed as “more than 5 logs”. Besides, the EC50 in the assay with HIV-1 [2] was 0.0001 µM.
